The text below walks through data of PubChem BioAssay AID2764 (Sanford-Burnham Center for Chemical Genomics, 2010).

By UniProt entry, the sequences of proteins in these tests, tags left out.
UniProt P35414, whole entry: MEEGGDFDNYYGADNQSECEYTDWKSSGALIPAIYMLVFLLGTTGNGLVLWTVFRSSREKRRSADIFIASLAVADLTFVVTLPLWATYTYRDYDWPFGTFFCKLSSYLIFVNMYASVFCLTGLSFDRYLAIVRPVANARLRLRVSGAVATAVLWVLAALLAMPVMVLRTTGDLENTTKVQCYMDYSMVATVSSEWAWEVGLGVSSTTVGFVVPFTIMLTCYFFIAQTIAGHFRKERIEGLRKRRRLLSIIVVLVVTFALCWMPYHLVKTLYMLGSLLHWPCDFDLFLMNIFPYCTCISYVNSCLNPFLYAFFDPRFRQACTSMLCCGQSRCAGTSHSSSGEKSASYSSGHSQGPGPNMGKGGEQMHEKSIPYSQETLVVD

Structures are written as SMILES. Only a part is listed here, and it is no random draw. Activity calls are given as the source filed them.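 The calls were made as follows: active = activation above 40%, taking the highest of four retests; inactive = the rest.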

The test addresses Apelin receptor (Homo sapiens) (UniProt P35414). The experiment in a line: APJ activation via beta-arrestin recruitment – cell-based, single concentration, CHO-K1, luminescence, confirmation (AID 2764).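 Also: plate controls were DMSO wells for no effect and apelin-13 at 10 nM for full effect.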 To be noted: CHO-K1 APJ PathHunter beta-arrestin, at 20 µM, active compounds read high. A digest of the protocol: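 doses = single dose, compounds 20 µM final, 1% DMSO | assay system = CHO-K1 AGTRL-1 (APJ) PathHunter cells, ProLink-APJ, EA-beta-arrestin fusions | signal = luminescence, enzyme-fragment complementation | timing = overnight cell seeding, 90 min compound exposure at 25 °C, 60 min detection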
On the technique in general: Recruitment of arrestin is a read-out of receptor activation apart from second messengers.

As for `O=[N+]([O-])c1cc([N+](=O)[O-])c(-c2cnn(-c3ccccc3)c2)c([N+](=O)[O-])c1`, the activation is inactive: 31.6%.
